Measurements: patent US20150290148A1 (priority 2006, published 2015)

Experiments:
interleukin 6 (IL6) gene = test: Quantitative real time PCR of hippocampal gene expression after IP injection; format: in vivo, Sprague-Dawley rats; details: within 1 hour after single injection of 1.0 mg/kg
male Wistar rats [1] = test: Traumatic brain injury (fluid percussion) in rats, neurological severity score; format: in vivo, rat
Method: (§1) Three groups of male Wistar rats/group were used in this study. The animals were given 0 (vehicle control; saline), 0 (sham controls) or 0.5 mg/kg/hr MA via a 24 hr continuous IV infusion starting 3 hr after […] on Day 0. The test article was administered via an Alzet mini-osmotic pump at a rate of 0.0073 mL/hour. The dose concentration of MA loaded in the Alzet pump varied between animals (45.8-65.0 mg/mL), and was based on individual animal body weight on Day 0 and the dose concentration that would yield 0.5 mg/kg/hr MA at an infusion rate of 0.0073 mL/hr. Dosing of the animals was staggered over a 4-month period.
Prior to test article administration, all rats were subjected to a surgical procedure to produce a fluid percussion injury. Adult Sprague-Dawley rats (male, 350-500 g) are anesthetized with isoflurane anesthesia (1% isofluorane in 1 L/min O2) via face mask to effect for a small craniectomy (4.80 mm) and placement of a rigid Luer-loc needle hub (3 mm inside diameter). […] The righting reflex time after injury was recorded. […] Animals were monitored 3-4 times a day for the first 48 hr following surgery and daily thereafter for 14 days.
Behavioral testing was conducted at day 1. […] Neurological motor function was scored in all animals as follows:
Neurological severity score (NSS) was determined based on the scale below. […]

male Wistar rats [2] = test: Traumatic brain injury (fluid percussion) in rats, foot fault test; format: in vivo, rat; details: after TBI; 0.5 mg/kg/hr 24 hr IV infusion starting 3 hr after injury
Method: as §1
Prior to test article administration, all rats were subjected to a surgical procedure to produce a fluid percussion injury. […] The righting reflex time after injury was recorded. […] Animals were monitored 3-4 times a day for the first 48 hr following surgery and daily thereafter for 14 days.
Foot fault testing was performed to measure placement dysfunction of forelimbs. […] This was recorded as a foot fault. The total number of steps (movement of each forelimb) that the rat used to cross the grid were counted, and the total number of foot faults for each forelimb were recorded.

[3] = system: interleukin 10 (IL10) gene; test: Quantitative real time PCR of hippocampal gene expression after IP injection; format: in vivo, Sprague-Dawley rats; details: within 1 hour after single injection of 1.0 mg/kg

CN[C@@H](C)Cc1ccccc1 [methamphetamine]
IL6 expression, fold change (interleukin 6 (IL6) gene): greater than two fold reduction | decrease in neurological severity score at day 7 (male Wistar rats [1]; 0.5 mg/kg/hr 24 hr IV infusion plus bolus, starting 3 hr after TBI): 52% | neurological severity scores vs saline (male Wistar rats [1]; 7, 14, 21 and 30 days after TBI, 0.5 mg/kg/hr 24 hr IV infusion starting 3 hr after injury): Significant differences in neurological severity scores | percent of forelimb misses (foot fault test) vs saline (male Wistar rats [2]): Significant differences in the percent of forelimb misses | IL10 expression, fold change [3]: increased more than four fold
